Test results from PubChem BioAssay AID504894 (National Center for Advancing Translational Sciences (NCATS), 2011).
The entries are a selection whose mix differs from that of the whole data set. Calls of active or inactive are those of the source. Calls follow the shape of the dose curve; as a rule, active = well fitted activation curve with a large enough effect; inconclusive = small, poorly fitted or top-dose-only effect, or another doubt; inactive = no such curve, though single readings can be large or run the other way.

experiment: Activators of T cell receptors: qHTS campaign; conditions: primary human leukocytes, anti-CD3, IL-2 HTRF, 48 h; at 9.22 µM (top of the series) unless noted; also: % of control where 0% means no effect
Source text: Normally activation of naive T cells requires two signals. 1. A signal through the T cell receptor (TCR) which provides antigen specificity to the response. 2. Signals through co-stimulatory molecules, which are necessary for proliferation, survival and cytokine production. In the absence of co-stimulatory signals T cells are not effectively activated, and may even be rendered anergic or unresponsive to subsequent signaling. This lack of costimulation has been shown in multiple model systems to be a major factor in the limited strength and effectiveness of anti-tumor T cell responses. The goal of this project is to identify small molecule compounds that will stimulate T cell activation in the presence of TCR signaling but in the absence of co-stimulatory signals, thereby allowing activation of naive T cells in the absence of co-stimulation. Identification of such compounds would have clear experimental and clinical applications in instances where desirable antigen-specific immune responses are not generated due to a lack of co-stimulation, for example in the generation of anti-tumor responses. In collaboration between the National Cancer Institute and NIH Chemical Genomics Center, a high-throughput amenable screen was developed to discover small molecules that co-stimulate and activate human T cell receptors. The screen will be carried out using a novel homogeneous time resolved fluorescence energy transfer (HTRF) assay to measure production of the cytokine IL-2 by activated T cells and will be tested against the NIH Molecular Libraries Small Molecule Repository (MLSMR). NIH Chemical Genomics Center [NCGC] NIH Molecular Libraries Probe Centers Network [MLPCN] MLPCN Grant: MH090820-01 Assay Submitter (PI): Richard Hodes, National Cancer Institute, NIH
Primary human leukocytes are incubated with a-CD3 beads and compounds for 48 hr. The amount of secreted IL-2 is then assayed with a HTRF IL-2 kit. The presence of IL-2 cytokine captures the detection reagents and brings the a-IL-2-K and a-IL-2-d2 into close proximity. Upon excitation with 320nm light, the europium cryptate is capable of transferring energy to acceptor molecules within close proximity, resulting in acceptor molecule emission at 665nm.

| Compound | activation of IL-2 secretion |
| --- | --- |
| CP(=O)(Oc1ccccc1)OC(c1ccccc1)C(F)(F)F (stereo unspecified) | inactive: 2.32% |
| CCOP(C)(=S)SCC(=O)NC(C)C(=O)O (stereo unspecified) | inactive: -3.93% |
| O=[N+]([O-])c1cc([N+](=O)[O-])c(O)c([N+](=O)[O-])c1.c1ccc(Oc2ccncc2)cc1 | inactive: 1.88% |
| CCOC(=O)c1ccc(NP(C)(=O)Oc2ccc(OC)cc2)cc1 (stereo unspecified) | inactive: -0.701% [at 46.1 µM] |
| CCN(CC)CCCOC(=O)C(O)(c1ccccc1)c1ccccc1 | inactive: 5.2% |
| CC(C)(C)c1ccc(OP(C)(=O)Nc2ccc(SC(F)(F)F)cc2)cc1 (stereo unspecified) | inactive: -16.9% [at 46.1 µM] |
| O=[N+]([O-])c1ccc2c(c1)C=Nc1ccccc1O2 | inactive: 0.339% |
| O=[N+]([O-])c1cc([N+](=O)[O-])c(Nc2cccnc2)c([N+](=O)[O-])c1 | inactive: 5.03% |
| COc1ccccc1OP(C)(=O)Nc1cc(Cl)ccc1C (stereo unspecified) | inactive: 6.35% |
| COc1ccc(OP(C)(=O)Nc2cccc(F)c2)cc1 (stereo unspecified) | inactive: 7.7% |
| Cc1cc(C)cc(OP(C)(N)=O)c1 (stereo unspecified) | inactive: 4.82% |
| CCOC(=O)c1ccc(NP(C)(=O)Oc2ccccc2)cc1 (stereo unspecified) | inactive: 2.23% [at 46.1 µM] |
| COc1ccccc1OP(C)(=O)Nc1ccc(C)cc1 (stereo unspecified) | inactive: -2.93% |
| Cc1ccc(NP(C)(=O)Oc2ccccc2)c(C)c1 (stereo unspecified) | inactive: -2.92% |
| COc1ccc(OP(C)(=O)Nc2ccccc2Br)cc1 (stereo unspecified) | inactive: 0.132% [at 46.1 µM] |
| COc1ccccc1OP(C)(=O)Nc1ccc(C)c(C)c1 (stereo unspecified) | inactive: 5.9% |
| Cc1cc(C)cc(OP(C)(=O)Nc2cccc(C(F)(F)F)c2)c1 (stereo unspecified) | inactive: -8.95% |
| CP(=O)(OCCOc1ccccc1)OCCOc1ccccc1 | inactive: -3.18% |
| CP(=O)(Nc1ccc(Cl)cc1Cl)Oc1ccccc1 (stereo unspecified) | inactive: -5.77% |

| Compound | activation of IL-2 secretion |
| --- | --- |
| CCCCCCCCCCCCCCCC1C[N+](C)(C)CCOP(C)(=O)O1 (stereo unspecified) | inactive: 0.0173% |
| CN(C)CCOC(=O)C(O)(c1ccccc1)C1CCCC1 (stereo unspecified) | inactive: 1.56% |
| COc1ccc(OP(C)(=O)Nc2ccccn2)cc1 (stereo unspecified) | inactive: 2.98% |
| COc1ccccc1OP(C)(=O)Nc1ccc(Br)cc1 (stereo unspecified) | inactive: 5.41% |
| CCc1ccc(OP(C)(=O)O)cc1 | inactive: -0.521% |
| CP(=O)(Nc1ccccn1)Oc1ccccc1 (stereo unspecified) | inactive: -0.598% |
| COc1ccccc1OP(C)(=O)Nc1ccc(C)cc1C (stereo unspecified) | inactive: 4.64% |
| O=[N+]([O-])c1cc([N+](=O)[O-])c(Nc2ccccn2)c([N+](=O)[O-])c1 | inactive: 3.23% |
| Cc1c(NP(C)(=O)Oc2ccc(C(C)C)cc2)c(=O)n(-c2ccccc2)n1C (stereo unspecified) | inactive: -0.983% |
| CP(=O)(Oc1ccccc1)N1CCOC1=O (stereo unspecified) | inactive: -3.04% |
| CCc1ccc(OP(C)(=O)Nc2cccnc2)cc1 (stereo unspecified) | inactive: -0.0792% |
| COc1ccccc1OP(C)(=O)Nc1c(C)n(C)n(-c2ccccc2)c1=O (stereo unspecified) | inactive: 2.38% |
| O=C(OCCCN1CCCC1)C(O)(c1ccccc1)C1CCCCC1 (stereo unspecified) | inactive: -6.2% |
| CCN(CC)CC(O)COC(=O)C(O)(c1ccccc1)C1CCCCC1 (stereo unspecified) | inactive: 3.26% |
| COc1ccc(OP(C)(=O)Nc2ccc(Br)cc2)cc1 (stereo unspecified) | inactive: 4.56% [at 46.1 µM] |
| CN(C)C(=O)c1c([N+](=O)[O-])cc([N+](=O)[O-])cc1[N+](=O)[O-] | inactive: 4.79% |
| CC(C)(C)c1ccc(OP(C)(=O)O)cc1 | inactive: 5.57% |
| CP(=O)(OC12CC3CC(CC(C3)C1)C2)OC12CC3CC(CC(C3)C1)C2 | inactive: -3.53% |
| CCOC(=O)c1ccc(NP(C)(=O)Oc2ccc(Cl)cc2)cc1 (stereo unspecified) | inactive: -3.78% [at 46.1 µM] |

| Compound | activation of IL-2 secretion |
| --- | --- |
| Nc1ccc2c(ccc3cccnc32)n1.O=[N+]([O-])c1cc([N+](=O)[O-])c(O)c([N+](=O)[O-])c1 | inactive: 4.86% |
| COc1ccc(NP(C)(=O)Oc2ccccc2OC)cc1 (stereo unspecified) | inactive: -1.56% |
| Cc1c(C(c2ccc3c(c2)OCO3)c2c(C)n(C)n(-c3ccccc3)c2=O)c(=O)n(-c2ccccc2)n1C.O=[N+]([O-])c1cc([N+](=O)[O-])c(O)c([N+](=O)[O-])c1 | inactive: -4.1% |
| Cc1cc(-c2cccc3ccccc23)c(C)cn1.O=[N+]([O-])c1cc([N+](=O)[O-])c(O)c([N+](=O)[O-])c1 | inactive: 7.54% |
| O=[N+]([O-])c1ccc(OP2(=O)COCCO2)cc1 (stereo unspecified) | inactive: 5.29% |
| CCOP(C)(=S)SCC(=O)NC(C)(CC)C(=O)O (stereo unspecified) | inactive: 11.8% |
| CP(=O)(Nc1ccc(SC(F)(F)F)cc1)Oc1ccc(F)cc1 (stereo unspecified) | inactive: 10.3% |
| Cc1ccccc1NP(C)(=O)Nc1ccccc1C | inactive: 2.19% |
| CP(=O)(Nc1ccc2c(c1)OCCO2)Oc1ccccc1 (stereo unspecified) | inactive: 2.1% [at 46.1 µM] |
| CC(C)c1ccc(OP(C)(=O)Nc2ccc(SC(F)(F)F)cc2)cc1 (stereo unspecified) | inactive: 1.1% [at 46.1 µM] |
| CP(=O)(Nc1ccccc1F)Oc1ccccc1 (stereo unspecified) | inactive: 3.04% |
| O=C(OCCN1CCN(CCOCc2ccccc2)CC1)C(O)(c1ccccc1)c1ccccc1 | inactive: -2.37% [at 46.1 µM] |
| COc1ccc(OP(C)(=O)Nc2ccc(SC(F)(F)F)cc2)cc1 (stereo unspecified) | inactive: -1.22% |
| CCOC(=O)c1ccc(NP(C)(=O)Oc2ccc(F)cc2)cc1 (stereo unspecified) | inactive: -1.02% [at 46.1 µM] |
| CCCCCOc1ccc(NP(C)(=O)Oc2ccc(Cl)cc2Cl)cc1 (stereo unspecified) | inactive: -4.66% |
| CP(=O)(Nc1ccccc1)Oc1ccc(F)cc1 (stereo unspecified) | inactive: 2.68% |
| CCN(CC)CCCOC(=O)C(O)(c1ccccc1)C1CCCCC1 (stereo unspecified) | inactive: -1.53% [at 46.1 µM] |
| Cc1c([N+](=O)[O-])cc([N+](=O)[O-])c(Br)c1[N+](=O)[O-] | inactive: 3.97% |
